Laboratory results from patent publication US6555563B1, “Heteroaryl substituted amidinyl and imidazolyl compounds and methods employing same for the treatment of inflammation” (Medinox, Inc., priority 2001, dated 2003).

Target: T1, COX-2 (Ovis aries, UniProt P79208)
T1 construct: host or cells: insect cells (membranes, CHAPS-solubilized)
T1 sequence (P79208 17-603): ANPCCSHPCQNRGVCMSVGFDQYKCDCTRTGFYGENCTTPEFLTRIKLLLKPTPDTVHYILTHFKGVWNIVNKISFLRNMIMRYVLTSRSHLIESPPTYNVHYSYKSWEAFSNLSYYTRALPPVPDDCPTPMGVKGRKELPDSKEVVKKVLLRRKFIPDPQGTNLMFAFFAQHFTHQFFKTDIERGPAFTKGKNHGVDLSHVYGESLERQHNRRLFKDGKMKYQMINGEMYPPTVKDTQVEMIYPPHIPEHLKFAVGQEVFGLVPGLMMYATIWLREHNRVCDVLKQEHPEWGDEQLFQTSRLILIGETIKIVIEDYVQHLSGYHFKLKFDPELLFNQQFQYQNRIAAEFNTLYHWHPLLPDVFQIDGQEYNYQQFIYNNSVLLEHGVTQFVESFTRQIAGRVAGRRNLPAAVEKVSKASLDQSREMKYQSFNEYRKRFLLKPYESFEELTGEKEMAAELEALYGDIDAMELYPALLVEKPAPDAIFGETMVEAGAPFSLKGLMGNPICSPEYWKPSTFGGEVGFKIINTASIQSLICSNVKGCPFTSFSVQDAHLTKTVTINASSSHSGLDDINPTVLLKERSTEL
Assay: Assay for COX-2 activity (Ovine), PGE2 formation by ELISA
Format: biochemical
Conditions: read-out: COX-2 10 nM (% inhibition)
Method: COX activity was assayed as PGE2 formed/μg protein/time using ELISA to detect prostaglandin release. CHAPS-solubilized insect cell membranes containing the appropriate COX enzyme were incubated in a potassium phosphate buffer (50 mM, pH 8.0) containing Tris-HCl, EDTA, phenol, and heme with the addition of arachidonic acid (10 μM). Compounds were pre-incubated with the enzyme for 5-10 minutes prior to the addition of arachidonic acid. Any reaction between the arachidonic acid and the enzyme was stopped after two minutes at 37° C. The PGE2 formed was measured by standard ELISA technology (Cayman Chemical).

**Q.** Which inhibition at 0.01 µM does the source give for Cc1onc(-c2ccccc2)c1-c1ccc(S(N)(=O)=O)cc1 [Valdecoxib, reference compound] here?
**A.** 71%
